Test [1] deals with N27. Description: Antiproliferative activity against rat N27 cells assessed as inhibition of cell proliferation at 6 uM incubated for 7 days followed by replacement with fresh media containing compounds after 96 hrs. Type of test: functional, cell-based. To be noted: time 7.0 day.
The test system of test [2] is N27. Description: Antiproliferative activity against rat N27 cells assessed as inhibition of cell proliferation at 1 uM incubated for 7 days in presence of 6-OHDA followed by replacement with fresh media containing compounds after 96 hrs. In kind it is functional, cell-based. To be noted: time 7.0 day.
Test [3] concerns N27. Description: Antiproliferative activity against rat N27 cells assessed as inhibition of cell proliferation at 1 uM incubated for 7 days followed by replacement with fresh media containing compounds after 96 hrs. To be noted: time 7.0 day. Type of test: functional, cell-based.
Test [4] addresses Peroxisome proliferator-activated receptor gamma (Homo sapiens) (UniProt P37231). The test can be described thus: Inverse agonist activity at human PPARgamma transfected in HEK293T cells incubated for 16 hrs by firefly/renilla based Dual-Glo luciferase assay. In kind it is cell-based. To be noted: filed as inverse agonist.
Test [5] has as its system N27. The test can be described thus: Induction of apoptosis in rat N27 cells at 100 uM incubated for 24 hrs in presence of 6-OHDA by brightfield/ fluorescence imaging. Type of test: functional, cell-based.
In test [6] the test system is N27. Description: Sensitization of rat N27 cells to 6-hydroxydopamine assessed as inhibition of cell proliferation at 100 uM incubated for 7 days in presence of 6-OHDA followed by replacement with fresh media containing compounds after 96 hrs. To be noted: time 7.0 day. Type of test: functional, cell-based.

Sequences of proteins named here, by UniProt entry; tags and fusion partners are left off. A change or cut given only in a name is not applied to a line headed by its entry.
UniProt P37231: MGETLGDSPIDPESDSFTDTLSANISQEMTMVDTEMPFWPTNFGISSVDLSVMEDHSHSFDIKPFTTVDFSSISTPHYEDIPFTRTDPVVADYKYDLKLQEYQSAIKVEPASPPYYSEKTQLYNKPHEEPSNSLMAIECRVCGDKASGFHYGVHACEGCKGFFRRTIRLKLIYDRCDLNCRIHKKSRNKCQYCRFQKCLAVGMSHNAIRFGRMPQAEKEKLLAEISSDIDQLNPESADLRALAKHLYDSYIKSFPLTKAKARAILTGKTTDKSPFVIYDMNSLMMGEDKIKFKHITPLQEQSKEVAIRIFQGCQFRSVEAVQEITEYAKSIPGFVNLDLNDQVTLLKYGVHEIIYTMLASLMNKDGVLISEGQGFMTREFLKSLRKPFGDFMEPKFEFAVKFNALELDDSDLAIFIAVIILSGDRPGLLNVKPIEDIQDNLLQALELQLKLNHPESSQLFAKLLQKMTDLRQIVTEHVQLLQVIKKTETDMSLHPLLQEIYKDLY

Calls of active or inactive are those of the source. No cut-off for these calls is given here.

Regarding `NCCc1cc(O)c(O)cc1O`, the result in the test with N27 [1] was inactive. For `C#CCOc1cccc(-c2ccc(NC(=O)C3=C(C(=O)O)CCC3)c(F)c2)c1`, the result with N27 [2] and in the test on N27 [3] was inactive.

For `CN(C)C(=O)CCc1nc(-c2ccccc2)c(-c2ccccc2)o1`, the result in test [4] was Active. As to `O=C(O)CCc1nc(-c2ccccc2)c(-c2ccccc2)o1`, the outcome in the test on N27 [5] and with N27 [6] was Active.

As to `O=C(O)Cc1nc(-c2ccccc2)c(-c2ccccc2)o1`, the result in test [4] was Active.
